# Legend:
# ClC-2 [1] = target: T1, ClC-2 (Oryctolagus cuniculus, UniProt P51789); assay: Two-electrode voltage clamp (TEVC) of ClC-2 currents in Xenopus oocytes; type: cell-based, rabbit; conditions: 0.1 mg/mL equivalent
# T1 construct: expressed in transfected cells; host or cells: Xenopus oocytes injected with cRNA (construct in pSport1, gift of H. C. Hartzell)
# T1 sequence (P51789 1-898): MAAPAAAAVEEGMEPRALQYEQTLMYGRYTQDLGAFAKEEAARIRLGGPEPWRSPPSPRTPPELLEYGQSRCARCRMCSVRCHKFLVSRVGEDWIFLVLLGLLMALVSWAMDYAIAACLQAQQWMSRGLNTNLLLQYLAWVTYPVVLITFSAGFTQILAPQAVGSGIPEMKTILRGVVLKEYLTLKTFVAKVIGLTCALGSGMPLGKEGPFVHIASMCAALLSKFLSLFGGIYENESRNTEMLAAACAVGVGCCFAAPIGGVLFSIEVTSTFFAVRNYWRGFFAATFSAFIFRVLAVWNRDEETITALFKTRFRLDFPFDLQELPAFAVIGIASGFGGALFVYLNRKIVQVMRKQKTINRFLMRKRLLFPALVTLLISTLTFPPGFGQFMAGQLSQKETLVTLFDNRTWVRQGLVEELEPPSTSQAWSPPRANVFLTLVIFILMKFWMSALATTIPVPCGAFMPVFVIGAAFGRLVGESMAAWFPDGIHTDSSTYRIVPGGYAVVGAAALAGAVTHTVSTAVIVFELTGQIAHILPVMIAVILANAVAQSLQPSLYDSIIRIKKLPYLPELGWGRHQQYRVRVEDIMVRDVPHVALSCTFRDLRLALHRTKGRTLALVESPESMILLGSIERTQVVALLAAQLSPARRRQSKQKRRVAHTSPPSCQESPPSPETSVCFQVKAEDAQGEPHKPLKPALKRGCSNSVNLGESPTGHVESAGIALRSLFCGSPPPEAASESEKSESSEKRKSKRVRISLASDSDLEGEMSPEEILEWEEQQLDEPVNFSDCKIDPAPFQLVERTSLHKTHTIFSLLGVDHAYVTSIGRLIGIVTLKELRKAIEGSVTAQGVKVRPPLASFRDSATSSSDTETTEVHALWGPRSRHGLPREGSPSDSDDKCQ
# ClC-2 [2] = target: T1, ClC-2; assay: Inside-out multi-channel patch recording of ClC-2 window current, toxin backfilled into pipette; type: cell-based, rabbit
# Description: Xenopus oocytes were isolated as previously described and incubated at 18° C. in a modified Liebovitz's L-15 medium (pH 7.5) with a cocktail of antibiotics (gentarnicin, penicillin, streptomycin) and HEPES. CRNA was prepared from rabbit ClC-2 using a construct in pSport1, donated by H. C. Hartzell (Emory University, Atlanta, Ga.). For two-electrode voltage clamp experiments (TEYC), oocytes were injected with 2.5-25 ng of ClC-2 cRNA, 0.06-1 ng Sh13-IR cRNA, or 50-100 ng GABAC-rho subunit cRNA. For patch recordings, oocytes were injected with 0.5-2 ng ClC-2 cRNA. Data were collected at room temperature 2-5 days post injection. Methods for animal handling are in accordance with the NIH guidelines and the protocol was approved by the Animal Use and Care Committee of the Georgia Institute of Technology.
# (§1) Inside-out multi-channel and single channel patch clamp experiments were performed as previously described (Fuller, M. D. et al. (2005) Biophys. J. 89, 3960-3975). All data were recorded to DAT tape at 10 kHz and were subsequently filtered at 100 Hz and acquired by computer at 500 Hz. For inside-out patches in the presence of toxin, the toxin was backfilled into the pipette and allowed to diffuse to the surface of the patch. Unless otherwise stated, all single channel traces depicted in the figures were recorded at VM=−100 mV. For all electrophysiological data shown, the horizontal dashed line indicates the zero-current level.
# For experiments to construct a dose-response curve using inhibition of ClC-2 in excised, inside-out multi-channel patches, the pipette was backfilled with varying concentrations of synthetic toxin. The pipette was backfilled in such a way as to allow 10 minutes of control recording (at VM=−100 mV or 60 mV), followed by 10 minutes of recording in the presence of GaTx2. The average window current from five separate four-minute windows in both control and experimental conditions was calculated.
# ClC-2 [3] = target: T1, ClC-2; assay: Single channel patch clamp of ClC-2 (one or two channels in patch); type: cell-based, rabbit; conditions: 20 pM; −100 mV
# Description: as §1
# Peptide toxins may either inhibit channels by acting as pore blockers, which fully or partially occlude the pore, or by acting as gating modifiers, making it more difficult for the channel to open (McDonough, S. I. (2003) in Calcium Channel Pharmacology, ed. McDonough, S. I. Kluwer-Academic-Plenum Publishing, New York). […] In the presence of GaTx2, the single protopore amplitude at −100 mV was unchanged from control (0.25±0.01 pA vs, 0.26±0.01 pA, n 3, p=0.45) (FIG. 4A) as measured from the difference between O1 and O2 from the amplitude histograms created from 2-minute sections of record in the absence and presence of toxin. […]
# mouse = conditions: injected into mouse brain; cited from earlier work
# insects = conditions: injected into insects; cited from earlier work
structure (smiles),measurement,setting,value
CC[C@H](C)[C@H](NC(=O)[C@@H]1CCCN1C(=O)[C@H](CCC(=O)O)NC(=O)[C@@H]1CSSC[C@@H]2NC(=O)[C@H](Cc3c[nH]cn3)NC(=O)[C@H](CC(=O)O)NC(=O)[C@@H]3CCCN3C(=O)[C@@H]3CSSC[C@H](NC(=O)[C@H](CCCCN)NC(=O)[C@H](CC(=O)O)NC(=O)[C@H](CC(N)=O)NC(=O)[C@H](CC(=O)O)NC(=O)[C@H](CSSC[C@H](NC(=O)[C@H](CO)NC(=O)[C@@H](N)C(C)C)C(=O)N[C@@H](CCC(=O)O)C(=O)N[C@@H](CC(=O)O)C(=O)N3)NC(=O)[C@H](CCCCN)NC(=O)[C@H](C)NC(=O)[C@H](CCCNC(=N)N)NC(=O)[C@H](C)NC(=O)[C@H](CCCCN)NC(=O)[C@H](CCC(N)=O)NC(=O)[C@H]([C@@H](C)O)NC(=O)[C@H](CO)NC2=O)C(=O)N[C@@H](C(C)C)C(=O)N1)C(=O)O [GaTx2],inhibition of ClC-2 currents,ClC-2 [1],64.2±5.3%
same,Kd,ClC-2 [2],0.012 nM
same,inhibition of ClC-2 current,"ClC-2 [2]; 2 pM toxin, VM=−100 mV",4.0±9.9%
same,decrease of average window current,"ClC-2 [2]; 2 nM backfilled into pipette, VM=−100 mV",80.4±2.0%
same,inhibition of ClC-2 current,"ClC-2 [2]; VM=−60 mV, 2 pM synthetic GaTx2 (the same sentence prints 2 μM toxin)",41.4±4.1%
same,reduction of channel activity NPO/N,ClC-2 [3],59.5±8%
same,lethal effects,mouse,not shown to have any lethal effects
same,lethal effects,insects,not shown to have any lethal effects

# Reference: patent US8324158B2, “Methods for inhibiting CLC-2 channel with GATX2” (Georgia Tech Research Corporation, priority 2006, dated 2012)
